Experimental data taken from patent publication US20200392084A1 (priority 2017, published 2020).
Read-outs that look alike come from different tables or passages of the source.

Assays:
[1] = not given; remark: listed apart in the source

## sulfasalazine benzenesulfonic acid (1:1) salt [Benzenesulfonic Acid Salt]
pH 1
  Thermodynamic solubility, Concentration: <LOD
  Thermodynamic solubility, XRPD of remaining solid: Sulfasalazine
pH 4.5
  Thermodynamic solubility, Concentration: <LOD
  Thermodynamic solubility, XRPD of remaining solid: Sulfasalazine
pH 6.8
  Thermodynamic solubility, Concentration: <LOD
  Thermodynamic solubility, XRPD of remaining solid: Sulfasalazine

## sulfasalazine tromethamine (1:1) salt [Tromethamine Salt]
pH 1
  Post-agitation pH: 1.61
  Pre-agitation pH: 1.36
pH 4.5
  Post-agitation pH: 6.98
  Pre-agitation pH: 5.80
pH 6.8
  Post-agitation pH: 6.95
  Pre-agitation pH: 6.89
[1]; 2-butanol
  Solubility Estimate: <1 mg/mL
[1]; DMSO
  Solubility Estimate: >82 mg/mL
[1]; EtOAc
  Solubility Estimate: <1 mg/mL
[1]; EtOH
  Solubility Estimate: 5 mg/mL
[1]; MeOH
  Solubility Estimate: 27 mg/mL
[1]; THF
  Solubility Estimate: 2 mg/mL
[1]; acetone
  Solubility Estimate: 2 mg/mL
[1]; acetonitrile (ACN)
  Solubility Estimate: <1 mg/mL
[1]; chloroform
  Solubility Estimate: <1 mg/mL
[1]; heptane
  Solubility Estimate: <1 mg/mL
[1]; isopropyl alcohol (IPA)
  Solubility Estimate: <1 mg/mL
[1]; water
  Solubility Estimate: 13 mg/mL
